Laboratory results: paper PMC7463582, “Modulation and Protection Effects of Antioxidant Compounds against Oxidant Induced Developmental Toxicity in Zebrafish” (Antioxidants, 2020)

Tested on: zebrafish embryos
Conditions: pre-exposure to the modulator at MTC

CC(=O)N[C@@H](CS)C(=O)O [N-acetyl-L-cysteine]
Shift of the LPS lethality concentration–effect curve (then LPS, versus LPS alone): shifted the lethality concentration–effect curves significantly
Shift of the TCHQ concentration–response curves for lethality and dysmorphogenesis (then TCHQ, versus TCHQ alone): significantly shifted to higher concentrations of TCHQ
Shift of the tBOOH concentration–response curves (lethality and dysmorphogenesis) (then tBOOH, versus tBOOH alone): significantly drifted the tBOOH concentration–response curves to higher concentrations
